2 substances from patent publication USRE31463E, “Radiopharmaceutical chelates and method of external imaging” (priority 1980, dated 1983) can be followed below.

The nature of this series: Biodistribution in mice after intravenous injection (organ activities by scintillation counter). Particulars: i.v.

In the case of “technetium-99m chelate of 8-hydroxyquinoline [Example 8]”, for the setting “60 minutes”, the “injected dose in the intestines” value stood at 20% and the “injected dose in the liver” value amounted to 40%.

For “technetium-99m chelate of N-(o-bromobenzyl) iminodiacetic acid [Example 13]”, the “injected dose in the liver” value (30 minutes) is reported as 40%.
